{"source": "patent US20230382863A1", "about": "“MEK INHIBITORS AND USES THEREOF” (Ikena Oncology, Inc., priority 2022, published 2023)", "test_system": "cancer cell lines", "assay": "In vitro MEK inhibitor drug combinations (Cell Titer Glo, Loewe synergy)", "type": "cell-based", "method": "Cell viability was determined by Cell Titer Glo assay. […] A normalized Loewe sum of synergy score of >10 was considered synergistic, <10, but >−10 additive, and <−10 antagonistic."}
{"smiles": "COc1cc2nc(C)nc(N[C@H](C)c3cc(N)cc(C(F)(F)F)c3)c2cc1O[C@H]1CCOC1", "note": "[BI3406]", "values": [{"measurement": "Loewe Synergy Score > 10", "result": "4/6 cell lines"}]}
